Reference: PMC11127902, “Rescuing tri-heteromeric NMDA receptor function: the potential of pregnenolone-sulfate in loss-of-function GRIN2B variants” (Cellular and Molecular Life Sciences: CMLS, 2024)

The chains behind the UniProt entries cited, without tags or fusion partners. Where a name states a change or a piece, a line headed by the entry shows the natural chain unless it says otherwise.
UniProt Q12809: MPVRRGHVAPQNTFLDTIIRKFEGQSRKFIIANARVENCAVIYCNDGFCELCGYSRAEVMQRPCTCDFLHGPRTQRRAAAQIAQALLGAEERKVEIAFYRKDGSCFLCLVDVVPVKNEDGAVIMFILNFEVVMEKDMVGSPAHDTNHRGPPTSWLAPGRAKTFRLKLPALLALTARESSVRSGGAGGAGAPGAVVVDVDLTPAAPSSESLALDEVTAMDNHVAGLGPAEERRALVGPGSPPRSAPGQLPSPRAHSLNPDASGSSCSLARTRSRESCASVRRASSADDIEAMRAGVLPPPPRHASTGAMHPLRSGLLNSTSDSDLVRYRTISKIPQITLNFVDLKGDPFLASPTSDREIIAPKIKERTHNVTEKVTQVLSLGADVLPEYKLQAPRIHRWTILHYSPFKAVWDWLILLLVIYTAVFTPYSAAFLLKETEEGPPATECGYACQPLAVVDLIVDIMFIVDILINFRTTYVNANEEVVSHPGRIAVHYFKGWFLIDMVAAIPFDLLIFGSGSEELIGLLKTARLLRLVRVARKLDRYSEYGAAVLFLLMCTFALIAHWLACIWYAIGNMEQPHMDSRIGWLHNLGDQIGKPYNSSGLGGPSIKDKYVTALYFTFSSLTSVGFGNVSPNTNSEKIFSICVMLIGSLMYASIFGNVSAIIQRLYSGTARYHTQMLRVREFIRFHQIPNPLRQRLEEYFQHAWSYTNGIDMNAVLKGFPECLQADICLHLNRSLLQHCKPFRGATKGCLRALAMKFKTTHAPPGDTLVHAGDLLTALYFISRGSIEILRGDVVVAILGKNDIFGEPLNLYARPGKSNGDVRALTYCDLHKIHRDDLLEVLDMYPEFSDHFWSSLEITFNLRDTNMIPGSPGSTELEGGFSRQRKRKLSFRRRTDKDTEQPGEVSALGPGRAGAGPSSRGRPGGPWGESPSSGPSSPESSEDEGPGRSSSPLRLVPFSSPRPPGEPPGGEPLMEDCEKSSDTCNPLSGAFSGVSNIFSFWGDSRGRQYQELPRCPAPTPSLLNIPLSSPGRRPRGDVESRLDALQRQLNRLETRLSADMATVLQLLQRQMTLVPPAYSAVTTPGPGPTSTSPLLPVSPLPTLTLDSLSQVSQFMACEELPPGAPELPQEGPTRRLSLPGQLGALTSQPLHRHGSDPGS

Biological target: human ether-a-go-go (hERG) channels (Homo sapiens, UniProt Q12809)
Conditions: 20 μM olanzapine, peak amplitude at -50 mV

Compound: Cc1cc2c(s1)Nc1ccccc1N=C2N1CCN(C)CC1 [olanzapine]
- effect of olanzapine on hERG channels: inhibition
